These are literature values, as cited in PMC8955485, “Journey on VX-809-Based Hybrid Derivatives towards Drug-like F508del-CFTR Correctors: From Molecular Modeling to Chemical Synthesis and Biological Assays” (Pharmaceuticals, 2022).

Amino acid sequences for entries named in this document (tags omitted). Chains listed by the source or under a name are the forms on record and can include a tag or linker.
UniProt P13569, with tags, fused parts or gaps DEL508-508: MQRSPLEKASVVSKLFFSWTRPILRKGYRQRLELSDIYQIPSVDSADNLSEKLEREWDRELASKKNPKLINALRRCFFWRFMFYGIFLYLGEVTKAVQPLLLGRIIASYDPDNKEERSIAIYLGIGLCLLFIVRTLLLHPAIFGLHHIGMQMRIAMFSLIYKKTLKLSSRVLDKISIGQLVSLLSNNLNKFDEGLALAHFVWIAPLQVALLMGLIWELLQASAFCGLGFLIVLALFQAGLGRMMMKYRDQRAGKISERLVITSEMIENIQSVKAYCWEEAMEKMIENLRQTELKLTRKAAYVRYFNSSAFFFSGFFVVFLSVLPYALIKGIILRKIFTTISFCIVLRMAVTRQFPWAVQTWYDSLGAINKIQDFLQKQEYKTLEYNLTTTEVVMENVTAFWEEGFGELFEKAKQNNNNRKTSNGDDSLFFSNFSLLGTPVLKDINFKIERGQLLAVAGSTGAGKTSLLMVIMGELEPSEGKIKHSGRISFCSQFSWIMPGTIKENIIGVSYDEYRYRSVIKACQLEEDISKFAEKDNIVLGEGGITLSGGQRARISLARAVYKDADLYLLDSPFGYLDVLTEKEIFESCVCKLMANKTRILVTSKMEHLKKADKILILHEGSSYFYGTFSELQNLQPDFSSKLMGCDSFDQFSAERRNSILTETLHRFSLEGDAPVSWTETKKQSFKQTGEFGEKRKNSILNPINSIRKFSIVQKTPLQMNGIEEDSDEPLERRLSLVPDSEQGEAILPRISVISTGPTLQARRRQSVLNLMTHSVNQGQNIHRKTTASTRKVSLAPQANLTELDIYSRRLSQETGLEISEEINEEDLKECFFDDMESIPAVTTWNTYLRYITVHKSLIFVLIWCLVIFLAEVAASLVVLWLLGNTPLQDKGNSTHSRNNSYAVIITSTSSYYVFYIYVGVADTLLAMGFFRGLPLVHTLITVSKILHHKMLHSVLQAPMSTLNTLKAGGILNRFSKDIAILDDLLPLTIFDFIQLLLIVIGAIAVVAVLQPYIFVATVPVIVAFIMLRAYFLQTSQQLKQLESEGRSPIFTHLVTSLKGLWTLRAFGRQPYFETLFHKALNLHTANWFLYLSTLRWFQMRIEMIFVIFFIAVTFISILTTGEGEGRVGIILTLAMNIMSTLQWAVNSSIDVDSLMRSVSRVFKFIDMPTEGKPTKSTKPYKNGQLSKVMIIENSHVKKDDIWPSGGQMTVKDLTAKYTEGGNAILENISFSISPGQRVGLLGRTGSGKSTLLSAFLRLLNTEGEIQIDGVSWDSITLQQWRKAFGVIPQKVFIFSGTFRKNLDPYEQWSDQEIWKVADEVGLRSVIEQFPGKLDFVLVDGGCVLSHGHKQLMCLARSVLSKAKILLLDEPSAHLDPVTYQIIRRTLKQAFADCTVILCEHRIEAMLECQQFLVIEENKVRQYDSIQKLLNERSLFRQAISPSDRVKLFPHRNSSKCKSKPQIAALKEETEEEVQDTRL

This data set concerns the target F508del-CFTR (Homo sapiens, UniProt P13569, DEL508-508). Further details: expressed in transfected cells. The settings on record: first series of hybrids, cited from earlier work.

On to `O=C(Nc1nc(-c2cccc(Cl)c2)cs1)C1(c2ccc3c(c2)OC(F)(F)O3)CC1` [Compound 6e], for which the EC50 is 4 µM. For the same compound, the pEC50 (from EC50 of ref 27) is 5.40 M.

As usually defined, the EC50 is the concentration at which the effect is half-maximal.
